Results reported in US10882857B2, “Bicyclic compounds as ATX inhibitors” (Hoffmann-La Roche Inc., priority 2017, dated 2021).
pIC50: −log10 of the molar value.

Target: ATX (human His-tagged) (Homo sapiens (Human), UniProt Q13822)
Test: Human ATX enzyme inhibition assay (fluorescence quenching, MR121 substrate)
Conditions: read-out: ATX IC50; 30 nM ATX, 1 μM MR121 substrate, 30° C.
Procedure: Human ATX Enzyme Inhibition Assay
ATX inhibition was measured by a fluorescence quenching assay using a specifically labeled substrate analogue (MR121 substrate). To obtain this MR121 substrate, BOC and TBS protected 6-amino-hexanoic acid (R)-3-({2-[3-(2-{2-[2-(2-amino-ethoxy)-ethoxy]-ethoxy-}ethoxy)-propionylamino]-ethoxy}-hydroxy-phosphoryloxy)-2-hydroxy-propyl ester (Ferguson et al., Org Lett 2006, 8 (10), 2023) was labeled with MR121 fluorophore (CAS 185308-24-1, 1-(3-carboxypropyl)-11-ethyl-1,2,3,4,8,9,10,11-octahydro-dipyrido[3,2-b:2′,3′-i]phenoxazin-13-ium) on the free amine of the ethanolamine side and then, after deprotection, subsequently with tryptophan on the side of the aminohexanoic acid.
Assay working solutions were made as follows:
Assay buffer (50 mM Tris-HCl, 140 mM NaCl, 5 mM KCl, 1 mM CaCl2, 1 mM MgCl2, 0.01% Triton-X-100, pH 8.0;
ATX solution: ATX (human His-tagged) stock solution (1.08 mg/mL in 20 mM bicine, pH 8.5, 0.15 M NaCl, 10% glycerol, 0.3% CHAPS, 0.02% NaN3), diluted to 1.4-2.5× final concentration in assay buffer;
MR121 substrate solution: MR121 substrate stock solution (800 μM MR121 substrate in DMSO), diluted to 2-5× final concentration in assay buffer.
Test compounds (10 mM stock in DMSO, 8 μL) were obtained in 384 well sample plates (Corning Costar #3655) and diluted with 8 μL DMSO. […]

SMILES: O=C(c1cc(OCC2CCOCC2)nc(C2CC2)c1)N1Cc2ccc(C(=O)N3CCc4[nH]nnc4C3)cc2C1
- pIC50: 8.10
